# What was measured:
# By UniProt entry, the sequences of proteins in these tests, tags left out. Chains listed by the source or under a name are the forms on record and can include a tag or linker.
# UniProt Q15910, other isoform, or with tags, fused parts or gaps: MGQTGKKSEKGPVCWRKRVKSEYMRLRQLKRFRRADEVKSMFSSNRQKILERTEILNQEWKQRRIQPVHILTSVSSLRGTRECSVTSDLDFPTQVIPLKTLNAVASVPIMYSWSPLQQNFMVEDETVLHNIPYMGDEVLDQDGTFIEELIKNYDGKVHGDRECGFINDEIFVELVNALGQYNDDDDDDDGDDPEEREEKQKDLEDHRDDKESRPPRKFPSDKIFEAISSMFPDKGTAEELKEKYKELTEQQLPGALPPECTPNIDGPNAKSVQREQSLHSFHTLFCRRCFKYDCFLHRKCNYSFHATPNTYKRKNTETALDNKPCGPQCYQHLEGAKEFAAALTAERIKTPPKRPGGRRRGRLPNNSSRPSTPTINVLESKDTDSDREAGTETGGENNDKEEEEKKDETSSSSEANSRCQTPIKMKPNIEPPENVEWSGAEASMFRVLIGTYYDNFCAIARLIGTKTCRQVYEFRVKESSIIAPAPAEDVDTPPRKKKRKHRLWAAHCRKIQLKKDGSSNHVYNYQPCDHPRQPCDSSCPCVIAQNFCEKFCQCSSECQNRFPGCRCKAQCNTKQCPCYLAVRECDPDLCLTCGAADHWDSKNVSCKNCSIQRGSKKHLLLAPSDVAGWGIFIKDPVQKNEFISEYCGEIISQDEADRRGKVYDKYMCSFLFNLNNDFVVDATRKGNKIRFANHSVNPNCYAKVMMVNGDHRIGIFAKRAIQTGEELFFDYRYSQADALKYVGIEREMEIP
# EZH2 (PRC2 complex) = EZH2 (PRC2 complex) (Homo sapiens (Human), UniProt Q15910); experiment: PRC2 enzyme assay on peptide substrate (EZH2 peptide v2)
# Karpas-422 xenograft = experiment: Efficacy study in Karpas-422 xenograft model; type: in vivo, mice
# [1] = mouse, in vivo, po
SMILES,IC50 (EZH2 (PRC2 complex)),"tumors large enough for analysis at day 28 (Karpas-422 xenograft; 250 mg/kg BID x28, p.o.)","anti-tumor effect in Karpas-422 xenograft model (in words) (Karpas-422 xenograft; oral, BID, up to 28 days, 62.5-500 mg/kg)",tolerability (in words) [1]
"CCN(c1cc(-c2ccc(OCCOC)cc2)cc(C(=O)NCc2c(C)cc(C)[nH]c2=O)c1C)[C@H]1CC[C@H](N(C)C)CC1 [Compound 1, N-((4,6-dimethyl-2-oxo-1,2-dihydropyridin-3-yl)methyl)-5-(((trans)-4-(dimethylamino)-cyclohexyl)(ethyl)-amino)-4′-(2-methoxyethoxy)-4-methyl-[1,1′-biphenyl]-3-carboxamide]",< 5 nM,–,–,–
"CCN(c1cc(-c2ccc(CN3CCOCC3)cc2)cc(C(=O)NCc2c(C)cc(C)[nH]c2=O)c1C)C1CCOCC1 [Compound A, N-((4,6-dimethyl-2-oxo-1,2-dihydropyridin-3-yl)methyl)-5-(ethyl(tetrahydro-2H-pyran-4-yl)amino)-4-methyl-4′-(morpholinomethyl)-[1,1′-biphenyl]-3-carboxamide, reference compound]",–,too small for analysis,tumor stasis and regression,well tolerated
